The values below come from BindingDB's records for doi:10.1002/syn.890150302 (Vanderbilt University, 1993).

Amino acid sequences for entries named in this document (tags omitted).
UniProt P61169, whole entry: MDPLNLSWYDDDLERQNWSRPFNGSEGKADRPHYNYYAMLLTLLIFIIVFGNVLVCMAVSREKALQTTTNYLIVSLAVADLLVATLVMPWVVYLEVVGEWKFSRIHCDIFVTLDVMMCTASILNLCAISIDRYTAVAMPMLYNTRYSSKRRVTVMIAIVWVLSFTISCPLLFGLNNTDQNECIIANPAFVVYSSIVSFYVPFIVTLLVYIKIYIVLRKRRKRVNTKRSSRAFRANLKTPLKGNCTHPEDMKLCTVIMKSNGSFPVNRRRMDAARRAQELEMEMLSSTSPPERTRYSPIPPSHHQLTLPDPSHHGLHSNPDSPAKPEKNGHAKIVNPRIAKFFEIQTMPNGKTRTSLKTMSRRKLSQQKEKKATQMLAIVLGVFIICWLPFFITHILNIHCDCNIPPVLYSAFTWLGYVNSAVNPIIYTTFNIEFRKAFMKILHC

“And” between values parts separate entries of the source, which are not always exact repeats. Equal entries are not always repeated.

The assay concerns the target D(2) dopamine receptor (Rattus norvegicus, UniProt P61169).

The term Ki denotes the equilibrium dissociation constant of an inhibitor or competing ligand from its target. Turning to `NCCc1c[nH]c2ccc(O)cc12` [[3H]-5-HT], the inhibition constant (Ki) was 7.95 µM and > 10 µM.

For `CN1CCN2c3ccccc3Cc3ccccc3[C@H]2C1` [MIANSERIN (+)], the inhibition constant (Ki) was 1.69 µM and 0.674 µM and 1.7 µM.
